Earlier results on one compound are cited in patent US20050009903A1, “CB2-selective cannabinoid analogues” (priority 2003, published 2005).

Sequences of proteins named here, by UniProt entry; tags and fusion partners are left off.
UniProt P34972, whole entry: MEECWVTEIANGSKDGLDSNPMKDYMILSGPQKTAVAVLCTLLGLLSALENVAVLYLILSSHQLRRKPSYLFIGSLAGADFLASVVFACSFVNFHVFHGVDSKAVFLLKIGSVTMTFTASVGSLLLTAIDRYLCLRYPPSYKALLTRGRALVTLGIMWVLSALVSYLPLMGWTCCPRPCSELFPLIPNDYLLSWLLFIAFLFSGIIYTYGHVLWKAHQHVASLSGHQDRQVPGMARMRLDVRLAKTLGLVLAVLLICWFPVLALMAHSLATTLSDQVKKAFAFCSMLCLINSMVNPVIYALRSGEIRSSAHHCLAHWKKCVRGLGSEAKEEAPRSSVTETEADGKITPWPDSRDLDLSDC

The target of the data set is CB2 receptor (Homo sapiens, UniProt P34972). Conditions: read-out: Ki CB2 receptor; Hanus et al.; cited from earlier work.

Turning to `CCCCCCC(C)(C)c1cc(OC)c([C@@H]2C=C(CO)[C@@H]3C[C@H]2C3(C)C)c(OC)c1` [HU-308], the Ki was 22.7 ± 3.9 nM.
